scFv variants of Ab-14 (light chain) against a SARS-CoV-2 spike peptide

From the AlphaSeq antibody data of Li et al. 2023 (doi:10.1038/s41467-023-39022-2), copy in the FLAb collection.

Antigen: PDVDLGDISGINAS, a 14-residue peptide of the SARS-CoV-2 spike HR2 region.

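Phage display of a naive human antibody library on the peptide gave the parent. This is the validation round: designs drawn from the data on random variants, tested in the same kind of assay. Group labels follow the data file (En: ensemble of fine-tuned language models; GP: Gaussian process model; HC: hill climbing; Gen: genetic algorithm; Gibbs: Gibbs sampling; a sequence that several methods proposed may carry one label only). The scFvs were displayed on barcoded MATa yeast, the peptide on MATalpha yeast. Mating (16 h, 30 °C) was followed by selection of diploids and sequencing of their barcodes. Scores were corrected for input abundance and mapped to Kd with protein pairs of known affinity run in the same pool. Mating was done six times.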

Parent scFv Ab-14: VH joined to VL by a (GGGGS)3 linker. Changes lie in the light chain CDRs alone.
VH: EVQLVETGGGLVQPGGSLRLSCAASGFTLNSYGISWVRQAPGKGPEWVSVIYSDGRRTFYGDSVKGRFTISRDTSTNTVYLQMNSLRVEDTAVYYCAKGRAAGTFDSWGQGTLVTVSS
VL: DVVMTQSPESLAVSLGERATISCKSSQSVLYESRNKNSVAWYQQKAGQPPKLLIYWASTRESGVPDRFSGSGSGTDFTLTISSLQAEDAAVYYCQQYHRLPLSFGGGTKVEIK

Each variant is given by its three light chain CDRs, as the data file delimits them; those of the parent are KSSQSVLYESRNKNSVA, WASTRES, QQYHRLPLS. This list holds designs with more than six substitutions. Values are log10 of the apparent Kd in nM; lower means stronger binding. Replicates are averaged; those with no signal do not enter the mean. "nd" means that the variant was in the library but no mating with the target was seen in that replicate; the authors take this as a sign of poor binding, and no number exists.

Variant IITQSVMTESKNKRNVA / NTSEREP / QQYDRLPLI [En_HC] gave 0.92, 0.43, 0.52, 0.58, 0.50, 0.83 (mean 0.63). For KSQQQYCYGDRNWNSVA / NASQRED / QQYHRLPLS [GP_Gibbs], the assay gave 0.15, 0.07, -0.02, -0.15, -0.05, 0.02 (mean 0.00). Variant KLSDPTVEWIANQSAVA / EHADTVH / QQYARLPLT [En_Gibbs] showed nd, 2.90, nd, nd, 2.76, 2.43 (mean 2.70). Variant MMSQVTGQGTRHRNNVA / QTSEREP / QQYDRLPLI [En_Gen] gave 2.72, 1.79, 0.99, 1.55, 1.71, 1.93 (mean 1.78). For KIGGTLNQLMHKKNNVA / DLVERET / QQYFRLPLS [En_Gen], the assay gave 0.23, 0.40, -0.05, 0.15, 0.20, 0.06 (mean 0.17). With HITYGMYVSGRYKSNIA / QAETRAK / QQYDRLPLI [En_Gen] the result was 1.61, 2.13, 1.65, 1.16, 0.94, 2.29 (mean 1.63). Variant SMSNLGMVPSVWKNSIA / DAEIVEE / QQYSRLPLT [En_Gibbs] gave nd, 1.65, 2.02, 2.11, 1.38, 2.97 (mean 2.03). Variant ALSQSMDMTSRMKNSVA / DLSTREN / QQYHRLPLS [En_HC] showed -0.05, 0.01, -0.33, -0.51, -0.17, 0.14 (mean -0.15). Variant HISMMVGTKGYNKNSVA / QAETRVD / QQYHRLPLS [En_HC] showed 0.32, 0.62, 0.81, 0.46, 0.56, 0.59 (mean 0.56).

Variant TIGSTLMYGSRNRSNVA / EVSERLN / QQYDRLPLL [En_Gen] showed 2.94, 2.63, 3.44, 2.56, 3.65, 2.14 (mean 2.90). Variant KISMLQRYENQNKNSIA / EMSRREN / QQYHRLPLS [En_HC] gave 0.54, 0.74, 0.67, 0.63, 0.59, 0.59 (mean 0.63). With KLREVEHVESKQKNNVA / DNSTRES / QDYHRLPLS [En_HC] the result was nd, 1.21, 1.92, 2.32, 2.06, 1.49 (mean 1.80). For KLSQSQCYEERNKNNVA / QASDRMS / QQYHRLPLS [GP_Gibbs], the assay gave 0.17, 0.09, 0.06, 0.10, 0.14, 0.12 (mean 0.11). Variant SIGGHMKSSMAHRNSVA / DMTNREE / QQYDRLPLS [En_Gen] showed 0.20, 0.28, -0.15, 0.26, 0.05, 0.35 (mean 0.16). With KLTHAMASWRGQRHNIA / EATVTAP / QQYSRLPIS [En_Gibbs] the result was 1.25, nd, 2.40, 1.75, 1.79, 1.74 (mean 1.78). Variant KLRQVTGYELYNKNSVA / QTSTRAS / QDYHRLPLS [En_HC] gave 1.31, 1.31, 1.04, 1.20, 1.21, 1.20 (mean 1.21). Variant KITDKFLTEGNGRQNIA / HAMVALE / QQYQQLPLA [En_Gibbs] gave 0.83, 0.26, 0.06, 0.53, 0.62, 0.23 (mean 0.42). Variant MVTQMAMTGMMNKRSVA / NAETREY / QQYHRLPLI [En_Gen] gave nd, nd, 0.75, nd, 0.82, 0.78 (mean 0.78).

Variant KVSSFMRGLRMRTDSIA / DNETRVS / QQYDRLPLS [En_Gen] gave 1.97, 1.84, 1.67, 2.12, 1.78, 1.84 (mean 1.87). Variant KYQQSEPYESRNKNSVA / NASTRMS / QQYHQLPLS [GP_Gibbs] showed 0.16, 0.07, 0.04, -0.07, 0.26, 0.13 (mean 0.10). Variant TISQMSTMFSQSINNVA / EVSTREQ / QQYDRLPLM [En_Gen] showed 0.42, 0.20, -0.08, -0.21, -0.03, 0.03 (mean 0.06). With KISQMTRVGSTHGNSIA / EEATRAK / QQYHRLPLF [En_Gen] the result was nd, nd, 1.92, nd, nd, nd. Variant TIGQVMHYESRNVNSVA / QTSTREE / QDYHRLPLS [En_HC] showed 1.27, 1.92, 1.28, 1.64, 1.74, 1.41 (mean 1.54). With RLTEHYSEKKAADASVA / DANTRND / QQYHRLPLF [En_Gibbs] the result was 0.01, -0.14, -0.28, -0.20, 0.08, 0.16 (mean -0.06). For KVDQSNLCEQRNKNSVA / SASLRFS / QQYHRLPLS [GP_Gibbs], the assay gave nd, 2.00, nd, nd, nd, nd. With MVNGIMDHLSKNSNNVA / EMTTREE / QQYERLPLS [En_Gen] the result was 0.76, 0.79, 0.22, 0.38, 0.56, 0.48 (mean 0.53). For NVGQSMLGESHNKNSVA / HQSTRED / QHYHRLPLS [En_HC], the assay gave 0.35, 0.70, 0.46, 0.66, 0.72, 0.77 (mean 0.61).

Variant KISMMYRFESTASNNIA / EMTTRAE / QSYHRLPLS [En_HC] showed 1.36, nd, 0.53, 1.17, 0.68, 0.77 (mean 0.90). Variant KLMQSMGYESRNFNSVA / QASQRSS / QQYHRLPLS [GP_Gibbs] gave 0.75, 0.89, 0.55, 0.83, 0.67, 0.76 (mean 0.74). Variant KISQSTPYEDRNFNSVA / NASYRCS / QQYHRLPLS [GP_Gibbs] showed nd, nd, nd, 2.35, nd, nd. For KISSMVRVGSTHSNSIA / EEAKRAD / QQYHRLPLA [En_Gen], the assay gave 1.78, 1.75, 1.34, 1.21, 1.25, 1.25 (mean 1.43). For KLTMITGLEKVIGNNVA / EMETRER / QQYNRLPLS [En_Gen], the assay gave 1.75, 1.19, 0.94, 0.52, 0.64, 0.73 (mean 0.96). Variant ILSQMMLTAGNKHSSVA / QANNRES / QQYHRLPLS [En_HC] gave 1.74, 1.56, 1.04, 1.03, 1.69, 1.22 (mean 1.38). For HVEHASLLSNATMNSVA / NEACLAD / QQYHRLPLA [En_Gibbs], the assay gave 1.15, 0.60, 1.02, 0.40, 1.27, 0.67 (mean 0.85). For HVSQSKLQGQRNKNSVA / EASQRER / QQYHRLPLS [GP_Gibbs], the assay gave 0.50, 0.58, 0.73, 0.58, 0.77, 0.43 (mean 0.60). Variant KIQMNEGTLMENINSIA / NSEVIVQ / QSYFRLPLS [En_Gibbs] gave 1.35, 0.79, 0.77, 0.62, 0.94, 1.56 (mean 1.01).

Variant KIGHGLTTESRNKNSVA / QTETRVS / QHYHRLPLS [En_HC] gave 0.74, 0.74, 0.67, 0.60, 0.30, 0.70 (mean 0.62). Variant SFHEINMEGLATNANVA / NASQLFS / QHYFRLPLQ [En_Gibbs] showed 1.44, 1.31, 0.73, 1.20, 1.21, 1.45 (mean 1.22). For KFVQHHDYESRNKNNVA / QASQREQ / QQYHRLPLS [GP_Gibbs], the assay gave -0.05, -0.16, -0.32, -0.36, -0.41, -0.23 (mean -0.26). For KIGMTLNQLMHKKNNVA / DLVMREQ / QQYHRLPLS [En_Gen], the assay gave 1.33, 2.82, 0.60, 0.73, 1.19, 0.72 (mean 1.23). With TISQMWFVESKNKNNVA / EMTTREN / QDYDRLPLS [En_HC] the result was nd, 1.14, 1.15, 1.86, 1.78, 2.58 (mean 1.70). With HITMGMYVSGRHTSNIA / QAEERAK / QQYDRLPLI [En_Gen] the result was nd, 1.83, nd, nd, 1.66, 3.65 (mean 2.38). Variant SLMQVGGYESNNHNSIA / DLRTRES / QQYHRLPLS [En_HC] showed 0.84, 1.24, 1.42, 0.61, 1.23, 1.24 (mean 1.09).

A selection of 7 entries from above:

KVSSFMRGLRMRTDSIA / DNETRVS / QQYDRLPLS [En_Gen]: 1.97, 1.84, 1.67, 2.12, 1.78, 1.84 (mean 1.87).
HISMMVGTKGYNKNSVA / QAETRVD / QQYHRLPLS [En_HC]: 0.32, 0.62, 0.81, 0.46, 0.56, 0.59 (mean 0.56).
HITYGMYVSGRYKSNIA / QAETRAK / QQYDRLPLI [En_Gen]: 1.61, 2.13, 1.65, 1.16, 0.94, 2.29 (mean 1.63).
KISMMYRFESTASNNIA / EMTTRAE / QSYHRLPLS [En_HC]: 1.36, nd, 0.53, 1.17, 0.68, 0.77 (mean 0.90).
TIGQVMHYESRNVNSVA / QTSTREE / QDYHRLPLS [En_HC]: 1.27, 1.92, 1.28, 1.64, 1.74, 1.41 (mean 1.54).
KISMLQRYENQNKNSIA / EMSRREN / QQYHRLPLS [En_HC]: 0.54, 0.74, 0.67, 0.63, 0.59, 0.59 (mean 0.63).
KLTMITGLEKVIGNNVA / EMETRER / QQYNRLPLS [En_Gen]: 1.75, 1.19, 0.94, 0.52, 0.64, 0.73 (mean 0.96).

Background: pairings of all light chain designs with three empty control strains gave a value in 4% of cases (median 2.64, 5th percentile 1.59). Values in that range, when seen in few replicates, are hard to tell from nonspecific mating. In the paper, a design with two or fewer of six values counts as a poor binder. The parent sequence was in this pool as ten entries: three were never detected, three once, and four in most replicates, with averages from 0.34 to 2.37. Values of this round are not directly comparable with the first-round values of the same sequences.